Experimental data reported in patent US20050070602A1, “Method of modulating immune response by administration of immuno-activation agent” (priority 2003, published 2005).

Conditions: PEITC-NAC diet 8 μmol/g, nine weeks
Text: Five week-old BALB/c (nu/nu) male mice purchased from Charles River Laboratories (Wilmington, Mass.) were housed in a barrier facility with 12-h light/dark cycles; tap water and diets provided ad libitum. They were randomly divided into two groups of nine mice. […] The diets began one week prior to inoculation of PC-3 cells and continued until termination of experiments. The xenografted tumors were established by a single s.c. injection in the flank of 0.8×10^6 PC-3 cells suspended in ice-cold matrigel (sigma). The tumor volumes were measured every 7-8 days and calculated by length×width×height×0.5236. Animal body weights were recorded weekly and at autopsy; food consumption was determined twice per week. Two hours before the mice were euthanized, 5-bromo-2′-deoxyuridine (BrdU) (10 mg/kg body weight) was injected in the peritoneum for in vivo labeling of proliferating cells. At autopsy, xenograft tumors were weighed and frozen in liquid nitrogen or fixed in 10% formalin and embedded in paraffin. The BrdU-labeled cells of paraffin embedded tissues on slides were detected employing a monoclonal anti-BrdU antibody from a BrdU detection kit (Roche Molecular Biochemicals) according to manufacturer's direction. The mean numbers of labeled cells from multiple fields were calculated. The comparisons between control and experimental groups were performed with Student's t test.

## CC(=O)N[C@@H](CSC(=S)NCCc1ccccc1)C(=O)O [PEITC-NAC, N-acetylcysteine conjugate of phenethyl isothiocyanate]
  overt toxicity: no overt toxicity
